Sampled rows, rich in hits. Any-hit rate of the full collection: about 1.8%.
E-selectin induc: E-selectin induction in HUVECs, primary screen, imaging, HUVEC, immunofluorescence imaging, single point | P16581 | activation, % at 7.58 µM | hit rate 0.37% among 260,000 | normalized: neutral wells 0, TNF-alpha wells 100;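 active = mean E-selectin-positive cell signal at least 10% of the positive control, reached in at least 60% of replicates, without over 20% cell loss; inconclusive = no rule given, readout overlaps actives, possibly toxicity-flagged; inactive = the rest, including those meeting only one limit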
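assay system = HUVEC, human umbilical vein endothelial cells | input = 3,000 HUVEC seeded per well | medium = EGM-2 growth medium on 0.1% gelatin-coated wells | dosing = one compound dose added by pin transfer | signal = immunofluorescence imaging | read-out basis = % PE-positive cells | control set = TNF-alpha, DMSO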
Yeast UUG start: modulators of start codon recognition fidelity in yeast; AID 602363; activity score, % at 18.7 µM; S. cerevisiae UUG-firefly luciferase reporter, luminescence/redox ratio; 0.13% of 350,000 active;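 active = replicate mean at a twofold rise or more, about +100% in these data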;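 note: firefly luciferase made from a UUG start codon reports start codon fidelity; reporter light over untreated wells divided by growth signal over untreated wells; some hits fall short of that in this replicate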
DENV2 CPE rescue: inhibitors of DENV2 cytopathic effect, primary screen, cell-based, plate reader, single concentration; DENV2-infected cells, cytopathic effect rescue; CPE inhibition, % at 9.99 µM; hit rate 1.7% among 350,000; AID 651640, 2012; in the data active = CPE inhibition above about 20%, passing the limit was not always enough; inconclusive = no clear call, values can overlap the other calls; tested in BHK-21 cells;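 note: 0% = median of neutral control wells and 100% = median of positive control wells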
Cneo AK release: Cryptococcus neoformans cell lysis inducers, primary screen, AK release luminescence, single concentration. C. neoformans lysis, adenylate kinase release luminescence, 4 h; normalised: neutral wells 0, clomiphene wells 100. lysis activity, % at 15 µM. hit rate 0.2% among 360,000. AID 651654, 2012;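 active = mean lysis activity across replicates of at least 80%, whatever share of replicates individually reach that level; inactive = mean lysis activity below 80%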
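Signal: Adenylate kinase release luminescence | Assay system: Log-phase Cryptococcus neoformans yeast cells | Input: Cells at 5 × 10^6 per mL | Buffer or medium: Fresh YPD growth medium | Compound: Single dose | Schedule: Static 4 h at 37 °C with compound, 1 h detection | Controls: Clomiphene | Read-out: Luminescence rise reflecting yeast cell lysis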
An asterisk follows results filed as active; ? = inconclusive; · = not tested or not shown.

SMILES	E-selectin induc	Yeast UUG start	DENV2 CPE rescue	Cneo AK release
C[C@@H]1CCCCO[C@H](CN(C)Cc2ccccc2)[C@H](C)CN([C@@H](C)CO)C(=O)c2cc(NC(=O)c3ccccc3)ccc2O1	·	12	27*	8
C[C@@H]1CCCCO[C@H](CN(C)Cc2ccc(C(=O)O)cc2)[C@H](C)CN([C@H](C)CO)C(=O)c2cc(NC(=O)c3ccncc3)ccc2O1	0	-8	42*	-2
CNC[C@@H]1OCCCC[C@H](C)Oc2ccc(NC(=O)c3ccccc3)cc2C(=O)N([C@@H](C)CO)C[C@@H]1C	0	21	-10	82*
C[C@@H]1CCCCO[C@@H](CN(C)Cc2ccncc2)[C@@H](C)CN([C@H](C)CO)C(=O)c2cc(NC(=O)c3ccncc3)ccc2O1	1	·	?	93*
C[C@@H]1CCCCO[C@H](CN(C)Cc2ccccc2)[C@@H](C)CN([C@H](C)CO)C(=O)c2cc(NC(=O)c3ccccc3)ccc2O1	6	-2	0	4
CCCN1C[C@H](C)[C@H](OC)CN(C)C(=O)c2cc(NC(=O)c3cccc(F)c3)ccc2OC[C@H]1C	0	3	1	4
O=C(C[C@H]1C[C@@H]2c3cc(NC(=O)Nc4ccccc4)ccc3O[C@@H]2[C@@H](CO)O1)NCc1cccc(F)c1	0	-4	-3	-59
CCCNC(=O)N[C@@H]1C=C[C@@H](CC(=O)NC2CCCCC2)O[C@@H]1CO	1	-2	5	-4
O=C(C[C@H]1C=C[C@@H](NC(=O)C2CCC2)[C@H](CO)O1)NCc1ccccc1Cl	0	-9	1	-2
C[C@@H]1CCCCO[C@@H](CN(C)Cc2ccc(C(=O)O)cc2)[C@H](C)CN([C@@H](C)CO)C(=O)c2cc(NC(=O)CCCN(C)C)ccc2O1	0	-13	38*	52
CCCC(=O)Nc1ccc2c(c1)C(=O)N(C)C[C@@H](OC)[C@H](C)CN(C(=O)CC)[C@H](C)CO2	0	·	·	·
CCCC(=O)Nc1ccc2c(c1)C(=O)N(C)C[C@H](OC)[C@@H](C)CN(C(=O)C1CCCC1)[C@H](C)CO2	0	·	35*	-1

Compounds from the list above that contain a COOH group:
SMILES	E-selectin induc	Yeast UUG start	DENV2 CPE rescue	Cneo AK release
C[C@@H]1CCCCO[C@H](CN(C)Cc2ccc(C(=O)O)cc2)[C@H](C)CN([C@H](C)CO)C(=O)c2cc(NC(=O)c3ccncc3)ccc2O1	0	-8	42*	-2
C[C@@H]1CCCCO[C@@H](CN(C)Cc2ccc(C(=O)O)cc2)[C@H](C)CN([C@@H](C)CO)C(=O)c2cc(NC(=O)CCCN(C)C)ccc2O1	0	-13	38*	52

Continuation:
SMILES	E-selectin induc	Yeast UUG start	DENV2 CPE rescue	Cneo AK release
CCC(=O)Nc1ccc2c(c1)C(=O)N(C)C[C@H](OC)[C@@H](C)CN(C(=O)CC)[C@@H](C)CO2	0	·	63*	53
CCCC(=O)Nc1ccc2c(c1)C(=O)N(C)C[C@H](OC)[C@@H](C)CN(C(=O)c1cccnc1)[C@H](C)CO2	0	10	·	90*
CCC(=O)N1C[C@H](C)[C@@H](OC)CN(C)C(=O)c2cc(NC(=O)NC3CCCC3)ccc2OC[C@H]1C	1	·	43*	·
O=C(NCC[C@@H]1CC[C@H](NS(=O)(=O)c2ccc(F)cc2)[C@@H](CO)O1)c1ccccc1F	0	·	?	·
C[C@H]1CCCCO[C@@H](CN(C)S(=O)(=O)c2cccs2)[C@@H](C)CN([C@@H](C)CO)C(=O)c2cc(NC(=O)C3CCCCC3)ccc2O1	0	-4	3	1
C[C@H](CO)N1C[C@H](C)[C@H](CN(C)CC2CC2)Oc2ccc(NS(=O)(=O)c3cn(C)cn3)cc2CC1=O	0	2	-6	1
COCCNC(=O)C[C@@H]1CC[C@@H]2[C@@H](COc3ccc(NC(=O)C4CCCC4)cc3C(=O)N2C)O1	0	8	6	-4
COCC(=O)N1C[C@@H](C)[C@@H](OC)CN(C)C(=O)c2cc(NC(=O)c3ccc(OC)cc3)ccc2OC[C@H]1C	0	13	34*	-1
CCC(=O)Nc1ccc2c(c1)C(=O)N(C)C[C@@H](OC)[C@H](C)CN(C(=O)COC)[C@@H](C)CO2	0	-2	21*	0
CCC(=O)Nc1ccc2c(c1)C(=O)N(C)C[C@@H](OC)[C@H](C)CN(C(=O)COC)[C@H](C)CO2	0	2	-4	1
CCS(=O)(=O)Nc1ccc2c(c1)C(=O)N(C)C[C@H](OC)[C@@H](C)CN(C(=O)COC)[C@H](C)CO2	0	11	82*	15
COCC(=O)N1C[C@H](C)[C@H](OC)CN(C)C(=O)c2cc(NC(=O)c3ccc(OC)cc3)ccc2OC[C@@H]1C	0	14	12	0

One compound at a time, as listed above. Order of screens: E-selectin induc | Yeast UUG start | DENV2 CPE rescue | Cneo AK release
C[C@H]1CCCCO[C@@H](CN(C)S(=O)(=O)c2cccs2)[C@@H](C)CN([C@@H](C)CO)C(=O)c2cc(NC(=O)C3CCCCC3)ccc2O1 across the screens: 0 | -4 | 3 | 1
CCC(=O)Nc1ccc2c(c1)C(=O)N(C)C[C@@H](OC)[C@H](C)CN(C(=O)COC)[C@H](C)CO2 across the screens: 0 | 2 | -4 | 1

Further structures.
SMILES	E-selectin induc	Yeast UUG start	DENV2 CPE rescue	Cneo AK release
C[C@@H]1CN([C@H](C)CO)C(=O)Cc2cc(NC(=O)Nc3cccc4ccccc34)ccc2O[C@H]1CN(C)C(=O)NC1CCCCC1	-1	2	-9	3
CCOC(CNc1cc(C)nc2c(-c3ccccc3OC)c(C)nn12)OCC	1	-17	6	-3
COc1ccccc1-c1c(C)nn2c(NCCN3CCCC3)cc(C)nc12	94*	-28	2	-2
O=S(=O)(N[C@@H]1CC[C@@H](CCn2cc(-c3ccccc3F)nn2)O[C@H]1CO)c1ccc(Cl)cc1	-1	0	3	-2
COc1cccc(C#Cc2ccc3c(c2)[C@H]2[C@H](CCN2C(=O)Cc2ccccc2)[C@H](CO)N3)c1	-1	·	7	·
C[C@H]1CN([C@@H](C)CO)S(=O)(=O)c2ccc(C#CC3(O)CCCC3)cc2O[C@H]1CN(C)C(=O)Cc1cccnc1	0	-13	19	3
N#Cc1ccc(C(=O)Nc2cc(C3CC3)nn2-c2ccccc2)cc1	0	2	22*	-1
CC(=C\c1ccco1)/C=C(\C#N)C(=O)NCCc1c[nH]c2ccccc12	1	·	58*	·
Cc1nc2scc(C)n2c(=O)c1S(=O)(=O)Nc1ccc(N2CCN(C(=O)C(C)C)CC2)cc1	·	-4	51*	-2
COc1ccc(CNC(=O)C[C@@H]2CC[C@@H](NC(=O)c3ccc4c(c3)OCO4)[C@@H](CO)O2)cc1	0	5	9	-4
Cc1ccc(S(=O)(=O)N(C)C)cc1NC(=O)[C@H](Cc1ccccc1)N1C(=O)c2ccccc2C1=O	·	·	42*	·
CCCC#Cc1cnc2c(c1)C(=O)N([C@@H](C)CO)C[C@@H](C)[C@H](CN(C)C(=O)c1ccc3c(c1)OCO3)O2	0	6	83*	-3
C[C@@H]1CN([C@H](C)CO)C(=O)c2cc(C#CCN(C)C)cnc2O[C@H]1CN(C)C(=O)c1ccc2c(c1)OCO2	0	7	-3	0
CCCC#Cc1cnc2c(c1)C(=O)N([C@@H](C)CO)C[C@H](C)[C@H](CN(C)C(=O)c1ccc3c(c1)OCO3)O2	1	13	-3	38
C[C@H](CO)N1C[C@H](C)[C@H](CN(C)C(=O)c2ccc3c(c2)OCO3)Oc2ncc(C#CCN(C)C)cc2C1=O	1	13	25*	1
C[C@@H]1COC(=O)[C@@H](CC(=O)OC(C)(C)C)C/C=C\C[C@@H](CC(=O)NCCO)C(=O)N1	·	1	24*	-1
COC(=O)c1c(CCl)noc1C(=O)NCC1CCCO1 (stereo not given)	0	-16	33*	1
O=C(N[C@H]1C=C[C@@H](CC(=O)N2CCc3ccccc3C2)O[C@H]1CO)C1CCOCC1	-1	·	15	·
